{"source": "patent US20260034130A1", "about": "(priority 2022, published 2026)", "origin": "cited, not measured here", "tested_on": "patients after acute non-cardioembolic ischaemic stroke", "settings": "10, 20 or 50 mg once daily for 26 to 52 weeks, added to antiplatelet therapy; cited from earlier work"}
{"substance": "asundexian", "values": [{"measurement": "composite of major or clinically relevant non-major bleeding compared with placebo", "value": "did not increase"}]}
